This test has as its target Pim-1 kinase (Homo sapiens, UniProt P11309). Description: Promega Kinase-Glo Pim-1 kinase inhibition assay.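 Further: in vitro Pim-1 reaction run 2 h at 30 °C, then leftover ATP measured by luciferase luminescence, where signal falls as kinase activity rises.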 A general note: Kinase-Glo measures the ATP left after a reaction by luminescence.
Setting [1] is: IC50 on Pim1, Table X, Kinase-Glo.

By UniProt entry, the sequences of proteins in these tests, tags left out.
UniProt P11309, whole entry: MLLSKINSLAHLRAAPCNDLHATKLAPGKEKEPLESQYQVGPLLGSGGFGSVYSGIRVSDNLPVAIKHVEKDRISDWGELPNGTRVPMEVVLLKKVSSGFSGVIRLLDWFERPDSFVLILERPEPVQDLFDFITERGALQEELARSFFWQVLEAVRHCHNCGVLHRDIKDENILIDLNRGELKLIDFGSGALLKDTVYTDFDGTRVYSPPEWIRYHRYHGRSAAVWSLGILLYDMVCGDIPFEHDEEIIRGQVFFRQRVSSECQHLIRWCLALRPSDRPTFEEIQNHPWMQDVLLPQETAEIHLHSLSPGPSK

Molecules are shown by their SMILES.

Broadly, the IC50 is the concentration that gives 50% inhibition. A high value points to weaker potency. The molecule `O[C@H]1CC[C@H](Nc2ccc3ncc(-c4cccc(OC(F)(F)F)c4)n3n2)CC1` [Compound 8-1, 4-((3-(3-(Trifluoromethoxy)phenyl)imidazo[1,2-b]pyridazin-6-yl)amino)-trans-cyclohexanol] showed an IC50 under setting [1] of 10 to 100 nM. On the same count and under the same terms, as for `O[C@H]1CC[C@@H](Nc2ccc3ncc(-c4cccc(OC(F)(F)F)c4)n3n2)CC1` [Compound 8-2, 4-((3-(3-(Trifluoromethoxy)phenyl)imidazo[1,2-b]pyridazin-6-yl)amino)-cis-cyclohexanol], the figure is 10 to 100 nM. On to `CN1CCC(O)(CNc2ccc3ncc(-c4cccc(OC(F)(F)F)c4)n3n2)CC1` [Compound 8-22, 1-Methyl-4-(((3-(3-(trifluoromethoxy)phenyl)imidazo[1,2-b]pyridazin-6-yl)amino)methyl)piperidin-4-ol], for which the IC50 (IC50 on Pim1) lay in the range of 10 to 100 nM. In turn, `N#Cc1cccc(-c2cnc3ccc(N[C@H]4CC[C@H](O)CC4)nn23)c1` [Compound 8-26] gave an IC50 under setting [1] of 10 to 100 nM. On to `O[C@H]1CC[C@H](Nc2ccn3ncc(-c4cccc(Cl)c4)c3n2)CC1` [Compound 8-61], for which the IC50 under setting [1] fell in the range of 100 to 1000 nM.

Source of the values: patent US20120058997A1, “IMIDAZO[1,2-B]PYRIDAZINE AND PYRAZOLO[1,5-A]PYRIMIDINE DERIVATIVES AND THEIR USE AS PROTEIN KINASE INHIBITORS” (SuperGen, Inc., priority 2006, published 2012).
